Data on 41 compounds can be found in US20060160798A1, “Viral polymerase inhibitors” (Boehringer Ingelheim (Canada) Ltd., priority 2001, published 2006).

The target of one assay is hepatitis C virus RNA dependant polymerase (NS5B) (Hepatitis C virus genotype 1b, UniProt P26663). Description: biochemical. To be noted: IC50, HCV NS5B polymerase, 10 nM enzyme, 1.5 hours at room temperature.
Consider `O=C(O)/C=C/c1ccc(NC(=O)C2(NC(=O)c3ccc4c(C5CCCCC5)c(Br)[nH]c4c3)CCCC2)cc1` [Entry 2003], for which the half-inhibitory concentration (IC50) (in general, the concentration that gives 50% inhibition) lay within 1000 to 10000 nM.
Still for that read-out and setting: next, `Cn1c(-c2cncc(C(N)=O)c2)c(C2CCCCC2)c2ccc(C(=O)NC(C)(C)C(=O)Nc3ccc(/C=C/C(=O)O)cc3)cc21` [Entry 2103]: less than 500 nM.
In turn, `Cn1c(-c2ccccn2)c(C2CCCCC2)c2ccc(C(=O)NC(C)(C)C(=O)Nc3ccc(NC(=O)C(=O)NO)cc3)cc21` [Entry 2095] gave a half-inhibitory concentration (IC50) of less than 500 nM.
The same measure, in the same setting: next, `Cn1c(C(=O)O)cc2cc(NC(=O)C(C)(C)NC(=O)c3ccc4c(C5CCCCC5)c(-c5ccccn5)n(C)c4c3)ccc21` [Entry 2093]: less than 500 nM; `Cn1c(-c2cccc[n+]2[O-])c(C2CCCCC2)c2ccc(C(=O)NC(C)(C)C(=O)Nc3ccc(/C=C/C(=O)O)cc3)cc21` [Entry 2097]: less than 500 nM.
The same measure, in the same setting: next, `CC(=O)N1CCCC(NC(=O)c2ccc3c(C4CCCCC4)c(-c4ccccn4)n(C)c3c2)(C(=O)Nc2ccc(/C=C/C(=O)O)cc2)C1` (centres unmarked) [Entry 2105]: less than 500 nM.
`CC(C)n1c(-c2ccccc2)c(C2CCCCC2)c2ccc(C(=O)NC(C)(C)C(=O)Nc3ccc(/C=C/C(=O)O)cc3)cc21` [Entry 2022]: the IC50 fell in the range of 1000 to 10000 nM.
Compound `NC(=O)/C=C/c1ccc(NC(=O)C2(NC(=O)c3ccc4c(C5CCCCC5)c(-c5ccoc5)[nH]c4c3)CCCC2)cc1` [Entry 2060] displayed an IC50 of less than 500 nM.
In turn, `O=C(O)/C=C/c1ccc(NC(=O)C2(NC(=O)c3ccc4c(C5CCCC5)c(-c5ccoc5)sc4c3)CCC2)cc1` [Entry 8003] returned a concentration for half-maximal inhibition (IC50) of 500 to 1000 nM.
Same read-out and setting: to `O=C(O)/C=C/c1ccc(N2CC[C@H](NC(=O)c3ccc4c(C5CCCCC5)c(-c5ccoc5)[nH]c4c3)C2=O)cc1` [Entry 5001] belongs 1000 to 10000 nM.
Same read-out and setting: to `CC(NC(=O)c1ccc2c(C3CCCC3)c(-c3ccccn3)n(C)c2c1)c1nc2ccc(C=CC(=O)O)cc2[nH]1` (centres unmarked) [Entry 1017] belongs less than 500 nM; to `CN(C)CCC(NC(=O)c1ccc2c(C3CCCC3)c(-c3ccccn3)n(C)c2c1)c1nc2ccc(C=CC(=O)O)cc2[nH]1` (centres unmarked) [Entry 1025], less than 500 nM.

The same assay, now with this note: IC50, Table 6.
The compound `CN1CCC(NC(=O)c2ccc3c(C4CCCC4)c(-c4cnccn4)n(C)c3c2)(C(=O)Nc2ccc(/C=C/C(=O)O)cc2)CC1` [Entry 6065] displayed an IC50 of less than 500 nM.
The same measure, in the same setting: to `CC(C)OC(=O)Nc1nc(-c2c(C3CCCC3)c3ccc(C(=O)NC(C)(C)C(=O)Nc4ccc(/C=C/C(=O)O)cc4)cc3n2C)cs1` [Entry 6028] belongs less than 500 nM; to `Cn1c(C(=O)NCc2ccccc2)c(C2CCCC2)c2ccc(C(=O)NC3(C(=O)Nc4ccc(/C=C/C(=O)O)cc4)CCCC3)cc21` [Entry 6110], 1000 to 10000 nM.
Still for that read-out and setting: to `O=C(O)/C=C/c1ccc(NC(=O)C2(NC(=O)c3ccc4c(C5CCCC5)c(-c5ccccn5)[nH]c4c3)CCC2)cc1` [Entry 6121] belongs 500 to 1000 nM.
The same measure, in the same setting: to `CC(=O)N1CCCC(NC(=O)c2ccc3c(C4CCCC4)c(-c4ccccn4)n(C)c3c2)(C(=O)Nc2ccc(/C=C/C(=O)O)cc2)C1` (centres unmarked) [Entry 6002] belongs less than 500 nM.
`Cc1ccc(-c2c(C3CCCC3)c3ccc(C(=O)N[C@@]4(C(=O)Nc5ccc(/C=C/C(=O)O)cc5)CCN(C)C4)cc3n2C)nc1` [Entry 6114]: the 50% inhibitory concentration (IC50) is less than 500 nM.
The compound `Cn1c(-c2csc(NCCN3CCCCC3)n2)c(C2CCCC2)c2ccc(C(=O)NC3(C(=O)Nc4ccc(/C=C/C(=O)O)cc4)CCCC3)cc21` [Entry 6093] came in with a concentration for half-maximal inhibition (IC50) of less than 500 nM.
In turn, `Cn1c(-c2csc(NCCN3CCOCC3)n2)c(C2CCCC2)c2ccc(C(=O)NC(C)(C)C(=O)Nc3ccc(/C=C/C(=O)O)cc3)cc21` [Entry 6025] yielded an IC50 of less than 500 nM.
`CCc1ccnc(-c2c(C3CCCC3)c3ccc(C(=O)NC4(C(=O)Nc5ccc(/C=C/C(=O)O)cc5)CCN(C)CC4)cc3n2C)c1` [Entry 6068] registered a half-inhibitory concentration (IC50) of less than 500 nM.
The same measure, in the same setting: next, `CN(C)CCNc1nc(-c2c(C3CCCC3)c3ccc(C(=O)NC4(C(=O)Nc5ccc(/C=C/C(=O)O)cc5)CCCC4)cc3n2C)cs1` [Entry 6097]: less than 500 nM.
Same read-out and setting: to `Cn1c(-c2cocn2)c(C2CCCC2)c2ccc(C(=O)NC3(C(=O)Nc4ccc(/C=C/C(=O)O)cc4)CCC3)cc21` [Entry 6083] belongs less than 500 nM; to `Cn1c(C(N)=O)c(C2CCCC2)c2ccc(C(=O)NC(C)(C)C(=O)Nc3ccc(/C=C/C(=O)O)cc3)cc21` [Entry 6113], 500 to 1000 nM.
On the same count and under the same terms, to `Cn1c(-c2csc(CO)n2)c(C2CCCC2)c2ccc(C(=O)NC(C)(C)C(=O)Nc3ccc(/C=C/C(=O)O)cc3)cc21` [Entry 6026] belongs less than 500 nM.
In the case of `CC(C)C(=O)Nc1nc(-c2c(C3CCCC3)c3ccc(C(=O)NC(C)(C)C(=O)Nc4ccc(/C=C/C(=O)O)cc4)cc3n2C)cs1` [Entry 6027], the IC50 is less than 500 nM.
Regarding `Cn1c(-c2csc(Nc3ccccc3)n2)c(C2CCCC2)c2ccc(C(=O)NC(C)(C)C(=O)Nc3ccc(/C=C/C(=O)O)cc3)cc21` [Entry 6004], the concentration for half-maximal inhibition (IC50) was in the range of 500 to 1000 nM.
The same measure, in the same setting: to `CC(=O)Nc1nc(-c2c(C3CCCC3)c3ccc(C(=O)NC4(C(=O)Nc5ccc(/C=C/C(=O)O)cc5)CCCC4)cc3n2C)cs1` [Entry 6086] belongs less than 500 nM; to `Cc1ccc(-c2c(C3CCCC3)c3ccc(C(=O)NC4(C(=O)Nc5ccc(/C=C/C(=O)O)cc5)CCCC4)cc3n2C)cn1` [Entry 6061], less than 500 nM.

Staying with this assay, now noted: IC50, Table 7.
As to `Cn1c(-c2ccccn2)c(C2CCCC2)c2ccc(C(=O)N[C@@]3(C(=O)Nc4ccc(-c5cnc(N)nc5)cc4)CCNC3)cc21` [Entry 7059], the IC50 is less than 500 nM.
Still for that read-out and setting: to `C/C(=C\c1ccc(NC(=O)C2(NC(=O)c3ccc4c(C5CCCC5)c(-c5cnccn5)n(C)c4c3)CCC2)cc1)C(=O)O` [Entry 7038] belongs less than 500 nM.
Still for that read-out and setting: next, `Cc1c(C(=O)O)sc2ccc(NC(=O)[C@]3(NC(=O)c4ccc5c(C6CCCC6)c(-c6ccccn6)n(C)c5c4)CCN(C)C3)cc12` [Entry 7057]: less than 500 nM; `Cn1c(-c2ccccn2)c(C2CCCC2)c2ccc(C(=O)NC3(C(=O)Nc4ccc(C#N)cc4)CCC3)cc21` [Entry 7070]: 500 to 1000 nM; `CN1CC[C@@](NC(=O)c2ccc3c(C4CCCC4)c(-c4ccccn4)n(C)c3c2)(C(=O)Nc2ccc(-c3cnc(N)nc3)cc2)C1` [Entry 7067]: less than 500 nM.
Same read-out and setting: next, `Cn1c(-c2ccccn2)c(C2CCCC2)c2ccc(C(=O)NC3(C(=O)Nc4nc5cc(C(=O)O)ccc5[nH]4)CCC3)cc21` [Entry 7062]: less than 500 nM; `CN1CCC(NC(=O)c2ccc3c(C4CCCC4)c(-c4ccccn4)n(C)c3c2)(C(=O)Nc2ccc(-c3csc(N)n3)cc2)C1` (centres unmarked) [Entry 7075]: less than 500 nM.
As for `Cn1c(-c2ccc(N)cc2)c(C2CCCC2)c2ccc(C(=O)NC3(C(=O)Nc4ccc(-c5ccc(C(=O)O)o5)cc4)CCC3)cc21` [Entry 7016], the IC50 was less than 500 nM.
On to `Cn1c(-c2cccc(N)n2)c(C2CCCC2)c2ccc(C(=O)NC3(C(=O)Nc4ccc(-c5ccc(C(=O)O)o5)cc4)CCC3)cc21` [Entry 7024], for which the IC50 is less than 500 nM.
The same measure, in the same setting: next, `Cc1c(C(=O)O)sc2ccc(NC(=O)[C@]3(NC(=O)c4ccc5c(C6CCCC6)c(-c6cnccn6)n(C)c5c4)CCN(C)C3)cc12` [Entry 7061]: less than 500 nM.
`Cn1c(-c2ccccn2)c(C2CCCC2)c2ccc(C(=O)NC3(C(=O)Nc4ccccc4)CCC3)cc21` [Entry 7073] returned an IC50 of 500 to 1000 nM.
Still for that read-out and setting: to `C/C(=C\c1ccc(NC(=O)C2(NC(=O)c3ccc4c(C5CCCC5)c(-c5cccc(N)c5)n(C)c4c3)CCC2)cc1)C(=O)O` [Entry 7014] belongs less than 500 nM.
